Results on 1 molecule are retold here after ChEMBL document CHEMBL1124370, “Orally active aldose reductase inhibitors derived from bioisosteric substitutions on tolrestat” (1989).

In assay [1] the target is Aldo-keto reductase family 1 member B1 (Bos taurus) (UniProt P16116). The experiment in a line: Inhibition of aldose reductase in partially purified bovine lens preparation at 10e-6 M. The method in brief:
(§1)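 Aldose reductase partially purified from bovine lens, with the final chromatographic step of the earlier preparation omitted. Assay run in duplicate with test compound at 1 × 10^-6 M or 1 × 10^-7 M. Reported as % inhibition of enzymatic activity.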

For assay [2] the target is unchanged. Put plainly: Inhibition of aldose reductase in partially purified bovine lens preparation at 10e-7 M concentration. In outline:
as §1

Take `COc1ccc2c(C(=S)N(C)CC(=O)O)cccc2c1C(F)(F)F` [TOLRESTAT]: the figures for the inhibition in assay [1] and in assay [2] were 94% and 65%, respectively.
